Measured values reported in ChEMBL document CHEMBL4828757, “Further hit optimization of 6-(trifluoromethyl)pyrimidin-2-amine based TLR8 modulators: Synthesis, biological evaluation and structure-activity relationships” (Eur J Med Chem, 2021).
Activity calls are given as the source filed them. The calls are words filed in the database; no cut-off is given here.

Biological target: T1, Toll-like receptor 7 (Homo sapiens) (UniProt Q9NYK1)
T1 sequence (whole entry): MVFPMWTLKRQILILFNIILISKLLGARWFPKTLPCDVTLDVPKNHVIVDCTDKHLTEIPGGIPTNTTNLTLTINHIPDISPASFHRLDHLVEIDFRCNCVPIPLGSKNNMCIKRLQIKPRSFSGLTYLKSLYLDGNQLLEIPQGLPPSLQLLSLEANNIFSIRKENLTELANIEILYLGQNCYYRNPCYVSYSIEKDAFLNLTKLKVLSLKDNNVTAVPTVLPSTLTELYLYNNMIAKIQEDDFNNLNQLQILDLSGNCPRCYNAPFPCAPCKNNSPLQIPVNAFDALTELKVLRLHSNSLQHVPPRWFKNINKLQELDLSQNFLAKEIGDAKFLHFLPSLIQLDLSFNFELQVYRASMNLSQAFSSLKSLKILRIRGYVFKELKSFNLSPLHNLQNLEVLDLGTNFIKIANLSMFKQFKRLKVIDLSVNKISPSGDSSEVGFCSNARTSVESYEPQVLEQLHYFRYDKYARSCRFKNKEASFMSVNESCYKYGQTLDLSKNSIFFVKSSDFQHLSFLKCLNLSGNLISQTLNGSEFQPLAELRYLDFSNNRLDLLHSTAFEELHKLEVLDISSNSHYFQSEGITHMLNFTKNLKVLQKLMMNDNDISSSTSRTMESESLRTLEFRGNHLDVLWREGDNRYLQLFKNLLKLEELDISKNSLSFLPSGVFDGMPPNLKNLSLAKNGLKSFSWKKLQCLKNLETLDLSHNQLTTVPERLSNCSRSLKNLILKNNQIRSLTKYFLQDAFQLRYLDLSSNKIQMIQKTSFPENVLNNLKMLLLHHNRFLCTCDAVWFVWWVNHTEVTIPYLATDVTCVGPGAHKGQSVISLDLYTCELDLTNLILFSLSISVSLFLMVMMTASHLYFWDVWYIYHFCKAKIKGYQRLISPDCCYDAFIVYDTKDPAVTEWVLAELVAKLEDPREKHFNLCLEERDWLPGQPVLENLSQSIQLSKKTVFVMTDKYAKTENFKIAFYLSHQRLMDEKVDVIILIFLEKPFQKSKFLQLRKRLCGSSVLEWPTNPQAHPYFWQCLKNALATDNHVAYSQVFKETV
Assay: Negative modulator activity at human TLR7 expressed in HEK-Blue hTLR7 cells assessed as inhibition of CL075 stimulated NF-kappaB activation up to 25 uM preincubated for 1 hr followed by CL075 stimulation for 24 hrs by SEAP-based colorimetric assay
Type: cell-based
Details: filed as modulator, dose microM <=25, time 25.0 hrs

Row | inhibition | SMILES
1 | Active | CS(=O)(=O)c1nc(-c2ccco2)cc(C(F)(F)F)n1
2 | Active | OCc1ccc(CNc2nc(-c3ccco3)cc(C(F)(F)F)n2)cc1
